Data reported in ChEMBL document CHEMBL4308836, “Inhibitors of Mutant Isocitrate Dehydrogenases 1 and 2 (mIDH1/2): An Update and Perspective” (J Med Chem, 2018).

Amino acid sequences for entries named in this document (tags omitted). Residues count along the entry.
UniProt O75874, 2-414 R132G limits assumed: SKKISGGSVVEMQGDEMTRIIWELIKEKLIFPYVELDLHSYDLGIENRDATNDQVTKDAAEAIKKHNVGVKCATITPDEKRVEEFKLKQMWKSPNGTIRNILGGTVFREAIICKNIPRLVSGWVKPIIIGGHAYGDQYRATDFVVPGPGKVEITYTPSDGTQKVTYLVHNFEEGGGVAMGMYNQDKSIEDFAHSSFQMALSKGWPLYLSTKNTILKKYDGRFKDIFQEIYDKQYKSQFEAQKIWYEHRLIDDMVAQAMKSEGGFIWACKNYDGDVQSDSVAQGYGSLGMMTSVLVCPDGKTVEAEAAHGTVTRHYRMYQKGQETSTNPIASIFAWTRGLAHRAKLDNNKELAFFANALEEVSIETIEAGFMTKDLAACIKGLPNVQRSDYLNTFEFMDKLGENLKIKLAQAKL
UniProt O75874, 2-414 R132C limits assumed: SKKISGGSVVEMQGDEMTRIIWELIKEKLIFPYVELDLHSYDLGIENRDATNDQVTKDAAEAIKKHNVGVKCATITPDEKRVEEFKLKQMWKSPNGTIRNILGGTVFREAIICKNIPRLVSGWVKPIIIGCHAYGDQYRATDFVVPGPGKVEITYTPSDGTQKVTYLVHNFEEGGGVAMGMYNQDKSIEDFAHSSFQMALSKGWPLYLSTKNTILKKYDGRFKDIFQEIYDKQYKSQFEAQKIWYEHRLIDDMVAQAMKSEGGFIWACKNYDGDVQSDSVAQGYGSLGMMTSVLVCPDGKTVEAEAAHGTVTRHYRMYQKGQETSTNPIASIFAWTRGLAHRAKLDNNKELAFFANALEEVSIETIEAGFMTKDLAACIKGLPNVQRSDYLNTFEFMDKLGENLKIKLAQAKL
UniProt O75874, 2-414 R132H limits assumed: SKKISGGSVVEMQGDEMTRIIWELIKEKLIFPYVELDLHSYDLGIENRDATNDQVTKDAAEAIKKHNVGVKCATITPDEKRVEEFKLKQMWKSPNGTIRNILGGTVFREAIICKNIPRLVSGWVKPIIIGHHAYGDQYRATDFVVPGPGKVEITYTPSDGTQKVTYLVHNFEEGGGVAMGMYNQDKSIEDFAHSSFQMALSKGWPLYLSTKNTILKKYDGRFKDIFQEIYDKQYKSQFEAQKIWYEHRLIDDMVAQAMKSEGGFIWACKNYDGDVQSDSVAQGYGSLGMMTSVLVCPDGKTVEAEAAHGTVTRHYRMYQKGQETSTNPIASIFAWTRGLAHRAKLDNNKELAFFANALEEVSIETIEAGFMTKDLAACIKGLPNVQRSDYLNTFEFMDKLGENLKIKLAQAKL

Tests used:
[1] = target: Isocitrate dehydrogenase [NADP] cytoplasmic (Homo sapiens, UniProt O75874, R132G)
[2] = target: Isocitrate dehydrogenase [NADP] cytoplasmic (Homo sapiens, UniProt O75874, R132C)
[3] = target: Isocitrate dehydrogenase [NADP] cytoplasmic (Homo sapiens, UniProt O75874, R132H)

IC50 [1]: 17 nM
EC50 [2]: 85 nM
IC50 [2]: 9 nM
IC50 [3]: 15 nM
Structure (SMILES): C[C@H](O)c1cccc(NC(=O)c2nn(Cc3ccc(F)cc3)c3c2CN(C(=O)c2ccc[nH]2)C[C@H]3C)c1
